{"source": "patent US20130261173A1", "about": "“CYCLODEXTRIN-BASED POLYMERS FOR THERAPEUTIC DELIVERY” (CERULEAN PHARMA INC., priority 2009, published 2013)", "test_system": "B16.F10 cells", "experiment": "Efficacy in a murine melanoma model (subcutaneous B16.F10 tumors)", "type": "in vivo, male C57BL/6 mice", "settings": "30 mg/kg IV, weekly schedule for 3 injections (study of 1.4, 2.3, 4.2, 5.2)", "method": "Tumor volume was calculated with a (width×width×length)/2 mm^3 formula.", "data": [{"smiles": "CC(=O)O[C@@]12CO[C@@H]1C[C@H](O)[C@@]1(C)C(=O)[C@H](O)C3=C(C)[C@@H](OC(=O)[C@H](O)[C@@H](NC(=O)OC(C)(C)C)c4ccccc4)C[C@@](O)([C@@H](OC(=O)c4ccccc4)[C@H]21)C3(C)C", "note": "[Free docetaxel, docetaxel, reference compound]", "values": [{"measurement": "Tumor growth inhibition (% TGI)", "result": 84, "unit": "%"}, {"measurement": "Tumor growth inhibition (% TGI)", "setting": "listed as free docetaxel", "result": 84, "unit": "%"}]}]}
